PMC5701006

Chains of the proteins cited; added tags and fusions are not shown. Residues count along the entry.
UniProt P37173, 23-166: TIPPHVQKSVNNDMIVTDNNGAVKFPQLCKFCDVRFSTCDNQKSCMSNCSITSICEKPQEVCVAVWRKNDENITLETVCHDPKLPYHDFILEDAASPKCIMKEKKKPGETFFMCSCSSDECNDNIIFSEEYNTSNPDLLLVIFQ

Key:
[1] = target: H. polygyrus TGF-β mimic (Hp-TGM), recombinant, biotinylated (Heligmosomoides polygyrus); test: SPR; BIAcore 3000; biotinylated Avi-hTGF-β3 or Hp-TGM captured on streptavidin-coated CM5 chips at 400-500 RU; two-fold dilutions of analyte (hTβRII from 13 µM downwards; r-betaglycan) in HBS-EP at 100 µL/min, room temperature; global fit, simple 1:1 model
[2] = target: biotinylated Avi-hTGF-β3 (human TGF-β3 bearing an N-terminal 15 amino acid Avitag followed by an EY linker) (human); test: as above
[3] = target: Heligmosomoides polygyrus TGF-β mimic (Hp-TGM), recombinant (Heligmosomoides polygyrus); test: SPR; BIAcore 3000; biotinylated Avi-hTGF-β3 or Hp-TGM captured on streptavidin-coated CM5 chips (400-500 RU); two-fold dilutions of analyte (hTβRII from 13 µM downwards, r-betaglycan) in HBS-EP, 100 µL/min, room temperature; global fit, simple 1:1 model
[4] = target: biotinylated human TGF-β3 bearing an N-terminal Avitag (Avi-hTGF-β3) (human); test: as above

| Substance | koff [1] [s⁻¹] | kon [1] [M⁻¹ s⁻¹] | koff [2] [s⁻¹] | kon [2] [M⁻¹ s⁻¹] | Kd [3] [nM] | Kd [4] [nM] |
| --- | --- | --- | --- | --- | --- | --- |
| human TGF-β type II receptor extracellular domain (from UniProt P37173 23-166) | 0.0521 | 17600 | 0.0773 | 265000 |  |  |
| human TGF-β type II receptor extracellular domain (hTβRII) (from UniProt P37173 23-166) (domain or fragment) |  |  |  |  | 2960 | 294 |
